# Experimental data taken from ChEMBL document CHEMBL2073864, “Transport of glyburide by placental ABC transporters: implications in fetal drug exposure” (Placenta, 2006).
# Protein sequences, listed by entry. Tags and fused reporters are not part of them. Lines headed by an entry give the natural chain unless they say otherwise; changes in a name come on top.
# UniProt Q9UNQ0: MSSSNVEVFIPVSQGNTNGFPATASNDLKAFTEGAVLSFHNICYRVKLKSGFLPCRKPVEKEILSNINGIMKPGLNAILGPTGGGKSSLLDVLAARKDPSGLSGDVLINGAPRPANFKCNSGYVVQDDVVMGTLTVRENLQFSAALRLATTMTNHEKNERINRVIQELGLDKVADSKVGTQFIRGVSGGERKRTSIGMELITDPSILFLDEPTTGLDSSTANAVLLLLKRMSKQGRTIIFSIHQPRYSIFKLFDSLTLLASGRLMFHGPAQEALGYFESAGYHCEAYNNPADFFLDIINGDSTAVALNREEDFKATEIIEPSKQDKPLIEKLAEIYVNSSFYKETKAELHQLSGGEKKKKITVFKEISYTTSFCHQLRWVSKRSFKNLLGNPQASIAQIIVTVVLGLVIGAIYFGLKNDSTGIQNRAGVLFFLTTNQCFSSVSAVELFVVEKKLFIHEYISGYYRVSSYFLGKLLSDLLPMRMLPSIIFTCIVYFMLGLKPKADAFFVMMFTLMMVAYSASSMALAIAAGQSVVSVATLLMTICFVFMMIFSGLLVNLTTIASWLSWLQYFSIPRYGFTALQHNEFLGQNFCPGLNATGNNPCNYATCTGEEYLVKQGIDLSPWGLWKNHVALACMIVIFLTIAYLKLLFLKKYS
# Molecular target: Broad substrate specificity ATP-binding cassette transporter ABCG2 (Homo sapiens, UniProt Q9UNQ0)
# Test: TP_TRANSPORTER: inhibition of glyburide accumulation by novobiocin at a concentration of 200uM in BCRP-expressing MCF7-MX cells
# Format: functional, cell-based
compound,measurement,value
CO[C@@H]1[C@@H](OC(N)=O)[C@@H](O)[C@H](Oc2ccc3c(O)c(NC(=O)c4ccc(O)c(CC=C(C)C)c4)c(=O)oc3c2C)OC1(C)C [NOVOBIOCIN],Activity,3 fold
